Data: US20240139185A1, “COMPOUNDS THAT PARTICIPATE IN COOPERATIVE BINDING AND USES THEREOF” (Revolution Medicines, Inc., priority 2018, published 2024)

Protein sequences, listed by entry. Tags and fused reporters are not part of them. Residues count along the entry.
UniProt P01116, 1-169 isoform 2 G12C limits assumed: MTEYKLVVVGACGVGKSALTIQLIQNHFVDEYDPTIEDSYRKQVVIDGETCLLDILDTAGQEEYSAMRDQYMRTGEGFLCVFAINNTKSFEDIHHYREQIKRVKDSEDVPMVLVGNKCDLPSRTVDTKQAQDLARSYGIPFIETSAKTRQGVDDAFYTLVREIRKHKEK

Target: BRAF-GTP-KRAS-G12C complex (Homo sapiens, UniProt P01116, G12C)
Experiment: KRAS-BRAF complex disruption TR-FRET without CYPA (presenter dependence)
Conditions: read-out: BRAF-GTP-KRAS-G12C complex disruption without CYPA (IC50)
Description: In this example, TR-FRET was used to measure the compound-facilitated disruption of a KRAS-BRAF complex. A mixture of tagless Cyclophilin A, His6-KRAS G12C-GMP-PNP, and GST-BRAF RAS binding domain was added to a 384-well assay plate containing compounds of the invention and incubated for 3 hours. A mixture of Anti-His Eu-W1024 and anti-GST allophycocyanin was then added and the reaction was incubated for an additional 1.5 hours. TR-FRET signal was read on an EnVision microplate reader (Perkin Elmer, Ex 320 nm, Em 665/615 nm). Compounds that facilitate disruption of a KRAS_BRAF complex were identified as those eliciting a decrease in the TR-FRET ratio relative to DMSO control wells. To determine the presenter-dependence of the compound-mediated KRAS-BRAF complex disruption, Cyclophilin A was left out of the initial incubation (see Table 5). To determine G12C specificity of the compound-mediated KRAS-BRAF complex disruption, wild-type KRAS was used instead of G12C KRAS (see Table 5). […]
Experimental Protocol • 1. Use Mosquito to dispense 100 nL/well of compounds (varying concentration in […]) into 384-well black ProxiPlate to make assay-ready-plate (ARP). • 2. […] Read on EnVision (Ex: 320 nm; Em1: 615 nm; Em2: 665 nm). • 8. […]

| IC50 | SMILES |
| --- | --- |
| > 30 µM | CC(C)[C@@H](C(=O)N[C@H]1Cc2cc(O)cc(c2)-c2ccc3c(c2)N(C[C@H](C)COC(=O)[C@@H]2CCCN(N2)C1=O)CC3(C)/C=C/C#N)N(C)C(=O)C1CN(C(=O)CCl)C1 (single isomer, unassigned) [221] |
| > 30 µM | CC(C)[C@@H](C(=O)N[C@H]1Cc2cc(O)cc(c2)-c2ccc3c(c2)n(c(=O)n3C2CC2)C[C@H](C)COC(=O)[C@@H]2CCCN(N2)C1=O)N(C)C(=O)C1CN(C(=O)CCl)C1 |
